Results: ChEMBL document CHEMBL1828590 (J Med Chem, 2011)

Target: T1, Histone deacetylase 8 (Homo sapiens, UniProt Q9BY41)
T1 sequence (Q9BY41 whole entry): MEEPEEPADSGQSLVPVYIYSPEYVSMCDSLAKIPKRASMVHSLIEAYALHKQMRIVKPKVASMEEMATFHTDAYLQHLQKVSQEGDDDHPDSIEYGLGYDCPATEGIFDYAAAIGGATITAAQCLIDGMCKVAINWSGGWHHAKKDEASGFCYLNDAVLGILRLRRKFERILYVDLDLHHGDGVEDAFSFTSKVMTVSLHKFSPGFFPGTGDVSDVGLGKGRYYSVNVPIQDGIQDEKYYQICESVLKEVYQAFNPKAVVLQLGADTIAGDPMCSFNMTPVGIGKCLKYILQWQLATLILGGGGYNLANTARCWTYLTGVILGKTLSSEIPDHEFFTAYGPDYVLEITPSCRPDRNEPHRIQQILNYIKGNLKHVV

## O=C(CCCCCCC(=O)Nc1ccccc1)NO [VORINOSTAT]
  Ki: 173 nM
